Ab-14 heavy chain CDR variants: yeast mating affinities

The target is the same throughout: PDVDLGDISGINAS, from the HR2 region of SARS-CoV-2 spike.

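This is the validation round: designs drawn from the data on random variants, tested in the same kind of assay. Several design methods are mixed in this list. The assay is AlphaSeq: two haploid yeast populations carry antibody and antigen on their surface. Binding brings cells together so that they mate, and sequencing counts the barcode pairs among the diploids. Scores were corrected for input abundance and mapped to Kd with protein pairs of known affinity run in the same pool. The assay was run in six technical replicates.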

The variants keep the light chain, the linker and the frameworks of Ab-14 (scFv order VH, a (GGGGS)3 linker, VL).
VH: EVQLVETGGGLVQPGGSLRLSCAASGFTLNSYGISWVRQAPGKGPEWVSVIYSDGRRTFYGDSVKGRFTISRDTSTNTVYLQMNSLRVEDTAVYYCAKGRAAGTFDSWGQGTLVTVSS
VL: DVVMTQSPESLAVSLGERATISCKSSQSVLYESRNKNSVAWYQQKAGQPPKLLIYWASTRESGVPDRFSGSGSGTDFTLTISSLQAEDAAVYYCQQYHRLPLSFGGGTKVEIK

The parent's heavy chain CDRs are GFTLNSYGIS, VIYSDGRRTFYGDSVK, GRAAGTFDS; each variant's own CDRs replace them letter for letter.
Affinities are written as log10 Kd with Kd in nM; a lower number is a better binder.
The mean shown is taken over the replicates in which the pair was detected.
A pair that was not seen in any replicate is written "no signal"; this usually means weak binding, but a binder can also be missed.
The authors averaged sequences with at least three values out of six and counted those with two or fewer as poor binders.

CDR-H1 | CDR-H2 | CDR-H3 | log10 Kd (nM), mean | seen in | signal with controls
GFTLNSYGIS | VIYSDGCRTFYYDSVK | GRAAGTFDS | no signal | 0/6 | 0/18
GFTLNDYGIS | VIYSDGRRTFYGDSVK | GRCAGTFKS | no signal | 0/6 | 0/18
TFTLNNYGIS | VIYSDGRRTFYGDSVK | GSAKGTFDS | 0.85 | 2/6 | 0/18
GFDLNEYGIS | VIYADGMRTAYADSVK | GNNAGTFDM | -0.82 | 6/6 | 0/18
GFTLNDYGIS | VIYSDGRRTFYGDSVK | GRAAGTFDI | -0.03 | 6/6 | 0/18
GFDLNSYGIS | VIYQDGRRKFYGDKFK | GRAAGWFNS | no signal | 0/6 | 0/18
GFDLNEYGIS | VIYADGMRTAYSDSVK | GTNAGTFDM | -0.22 | 6/6 | 0/18
GFDLNEYGIS | VIYADGMRTAYADNVK | GNQAGTFDM | -0.35 | 6/6 | 0/18
GFDLNSYGIS | VIYSDGRRTFYGDSVK | GAAAGTFDS | 0.81 | 6/6 | 1/18
GKTLNEYGIS | VIYSDGRRTFYGDSVK | GRAAVTFDQ | no signal | 0/6 | 0/18
GFLIEEYGIS | VIYADGVRKAYVNSFK | GEVGGTFTN | 1.11 | 6/6 | 1/18
GFKLNSYGIS | VIYSDGRRTFYADSVK | GKAAGTFDS | 1.50 | 5/6 | 0/18
GFDLMEYGIS | VIYADGTRTMYTDKVK | GWFGDTGKT | no signal | 0/6 | 0/18
GFDLNEYGIS | VIYADGMRTFYADSVK | GQNAGTFDF | -0.34 | 6/6 | 0/18
GFTLESYGIS | VIYSDGRRTFYGDSVK | GRAVGTFDS | 1.84 | 2/6 | 0/18
GFTLNEYGIS | VIYSDGRRTFYGDSVK | GPAAGTFDR | no signal | 0/6 | 0/18
GFTLNSYGIS | VIYSDGRRTFYGDQVK | GRTAGTFDS | 0.74 | 3/6 | 0/18
GFDLNEYGIS | VIYADGRRTYYIDSVK | GEVAGTFDA | -0.67 | 6/6 | 0/18
GFNLNEYGIS | VIYADGRRTFYADSVK | GEAAGTFDT | 0.30 | 6/6 | 0/18
GFELNSYGIS | VIYSDGRRTFYKDSVK | GKASGTSNS | no signal | 0/6 | 0/18
GFGLNSYGIS | VIYSDGRRTAYGDSVK | GRNAGTFDS | 1.38 | 6/6 | 0/18
GFGLNEYGIS | VIYSDGRRTFYKDSVK | GRAAGTFDS | 2.62 | 2/6 | 0/18
GFTLNQYGIS | VIYSDGRRTFYSDSVK | GRAAGFDWS | no signal | 0/6 | 0/18
GFELNDYGIS | VIYSDGRRTFYGDSVK | GRTAGTFDA | 0.53 | 6/6 | 0/18
GFELNSYGIS | VIYSDGRRTFYADSVK | GKAAGTFDL | 0.59 | 6/6 | 0/18
GFDLNEYGIS | VIYADGSRTAYIDSVK | GNNAGTFDV | -0.09 | 6/6 | 0/18
GFDLNEYGIS | VIYADGRRTQYIDSVK | GETAGTFDA | -0.75 | 6/6 | 0/18
MFELNSYGIS | VIYADGRRTFYGDSVK | GQAAGTFDK | 2.04 | 2/6 | 0/18
GFQLNDYGIS | VIYSDGRRTFYIDHVK | GNAAGTFDS | 1.06 | 6/6 | 2/18
GFNLNEYGIS | VIYADGRRTFYADSVK | GQLAGTFDM | no signal | 0/6 | 0/18
GFSLNAYGIS | VIYSDGRRTFYGDSVK | GKTAGTFDS | 0.33 | 6/6 | 0/18
GFTLNEYGWS | VIGSDGRRTFYGDSVK | GRAAVTFDQ | no signal | 0/6 | 0/18
GFTLNSYGIS | VIYSDGLRTFYGDSVK | GRAAGTFEV | no signal | 0/6 | 0/18
GFDLNMYGIS | VIYSDGRRTFYGDSVK | GKTAGTFDS | 0.34 | 6/6 | 1/18
GFTLNEYGIS | VIYSDGRRTFYGDSVK | GQAAGTFVS | 1.52 | 2/6 | 0/18
GFDLNEYGIS | VIYADGMRTAYVDSVK | GNQAGTFDM | -0.73 | 5/6 | 0/18
GFEINSYGIS | VIYSDGRRLFYADSVK | HEAAGTFHS | no signal | 0/6 | 0/18
GFNLNSYGIS | VIYSDGRRTFYADRVK | GRQAGTFDS | 1.45 | 6/6 | 1/18
TFTLNSYGIS | VIYSDGRRTFYSDDVK | GWAAGTFDS | no signal | 0/6 | 0/18
GFDLNEYGIS | VIYADGSRVAYAQNVK | GKNDAISSS | no signal | 0/6 | 0/18
GFVLNSYGIS | VIYADGRRTFYGDSVK | GNAAGTFDS | 0.50 | 5/6 | 0/18
GFTLNEYGIS | VEYNNGRRRFYTDSVK | GRFAGTFDS | no signal | 0/6 | 1/18
GFTLNSYGIS | VIYSDGRRTFYGDSVK | GRSAGTFLL | 1.04 | 6/6 | 1/18
GFSLNEYGIS | VIYSDGRRTFYADSVK | GRAAGTFDM | -0.13 | 6/6 | 0/18
GFTLNSYGIS | VIYSDGRRTFYHDSVK | GRAAGTFMS | 1.89 | 1/6 | 0/18
GFDLDEYGIS | VIYADGKRTAYIDSVK | GETAGTFDV | -0.58 | 6/6 | 1/18
GFTLNDYGIS | VIYSDGRRVFYGDSVK | GRAAGTFDS | 1.17 | 5/6 | 0/18
GFDLDEYGIS | VIYADGQRTAYSDSVK | GANAGTFDV | -0.30 | 6/6 | 0/18
GFDLNSYGIS | VIYSDGRRTFYHDSVK | GREAGTFDS | -0.08 | 5/6 | 0/18
GFTLNSYGIS | VIYSDGRRTFYGPSVK | TRAEGTFDS | no signal | 0/6 | 0/18
GFELNEFGIS | VIYADGMRQAYRDDVK | GDISGDFML | 0.49 | 5/6 | 1/18
GFTLNSYGIS | VIYADGRRTFYGDSVK | GHAALGFDS | no signal | 0/6 | 0/18
SFTLNEYGIS | VIYSDGRRTFYMDSVK | GRTAGTFDS | 0.80 | 3/6 | 0/18
GFNLNEVGIS | VIYADGLRSAYVDSVK | GGVVGVDFV | 1.59 | 2/6 | 0/18
GFNLNEYGIS | VIYADGRRTFYSDSVK | GEVAGTFDS | -0.58 | 6/6 | 0/18
GFNLDEFGIS | VIYADGMRTAYSQDVK | GQHVEFTVG | no signal | 0/6 | 0/18
GFLLNSYGIS | VIYADGRRTFYGDSVK | GKAAGTFDS | 0.78 | 6/6 | 0/18
GFTLNSYGIS | VIYSDGRRTFYTDSVK | GQTAGTFDS | 1.43 | 5/6 | 0/18
KFDIEHYGIS | VIYADGKRTAYSNAVK | GWQGGTFNT | 0.68 | 6/6 | 0/18
GFQLDEYGIS | VIYADGRRTFYQDSVK | GEVAGTFDV | -1.28 | 6/6 | 0/18
GFDLNSYGIS | VIYSDGRRTFYADSVK | GRTAGTFDC | 0.18 | 6/6 | 1/18
GFTLNEYGIS | VIYSDGRRTMYGDSVK | GRFAGTFDS | 0.75 | 6/6 | 0/18
GFSLNSYGIS | VIYSDGRRTFYDDRVK | GREAGTFDS | -0.01 | 6/6 | 0/18
GFSLDEYGIS | VIYADGRRTFYADSVK | GNVAGTFDM | -0.35 | 6/6 | 1/18
GFDLNEYGIS | VIYADGKRTAYADSVK | GHVAGTFDV | -0.79 | 6/6 | 0/18
GFTLNSYGIS | VIYSDGRRTFYADRVK | GKVAGTFDT | 1.62 | 4/6 | 0/18
GFDLNEYGIS | VIYADGMRTAYTDSVK | GQNAGTFDI | -1.35 | 6/6 | 0/18
GFDLDEYGIS | VIYADGKRTAYSDSVK | GETAGTFDV | -0.21 | 6/6 | 0/18
GFTLNSYGIS | VIYSDGRRTFYIDSVK | GNAAGTFDT | 0.84 | 4/6 | 0/18
GFDIEEFGIS | VIYADGRQVAYAQKFK | GTIAGTFVD | 1.37 | 2/6 | 0/18
GFDLNEYGIS | VIYADGRRTFYTDSVK | GNVAGTFDS | -0.49 | 6/6 | 0/18
GFDLEEYGIS | VIYADGMRTFYTDSVK | GEVAGTFDV | -0.20 | 5/6 | 0/18
GFDLNEYGIS | VIYADGRRTAYSDSVK | GGNAGFFDT | no signal | 0/6 | 1/18
GFDLNEYGIS | VIYADGRRTFYTDSVK | GEHAGIFDV | 0.13 | 5/6 | 0/18
GFNLNSYGIS | VIYSDGRRTAYGDSVK | GRAAGTFDS | 1.14 | 6/6 | 0/18
GFDLNEYGIS | VIYADGMRTAYADNVK | GNNAGTFDV | -0.39 | 6/6 | 0/18
GFTLNSYGIS | VIYADGRRTFYGDSVK | GEAAGTFES | 0.50 | 5/6 | 0/18
GFTLNYYGIS | VIYSDGRRTFYDDSVK | GQLAGTFDS | 0.40 | 6/6 | 0/18
GFTLNDKGWS | VIYSDGRRTQYIDSVK | GRAAGTFDS | 1.64 | 2/6 | 0/18
GFDLNEYGIS | VIYADGRRTAYADSVK | GQVAGTFDT | -0.54 | 6/6 | 0/18

The last 6 entries again:

| CDR-H1 | CDR-H2 | CDR-H3 | log10 Kd (nM), mean | seen in | signal with controls |
|---|---|---|---|---|---|
| GFNLNSYGIS | VIYSDGRRTAYGDSVK | GRAAGTFDS | 1.14 | 6/6 | 0/18 |
| GFDLNEYGIS | VIYADGMRTAYADNVK | GNNAGTFDV | -0.39 | 6/6 | 0/18 |
| GFTLNSYGIS | VIYADGRRTFYGDSVK | GEAAGTFES | 0.50 | 5/6 | 0/18 |
| GFTLNYYGIS | VIYSDGRRTFYDDSVK | GQLAGTFDS | 0.40 | 6/6 | 0/18 |
| GFTLNDKGWS | VIYSDGRRTQYIDSVK | GRAAGTFDS | 1.64 | 2/6 | 0/18 |
| GFDLNEYGIS | VIYADGRRTAYADSVK | GQVAGTFDT | -0.54 | 6/6 | 0/18 |

A sequence measured in both rounds can read differently, since the two assays cover different ranges.
The parent sequence was in this pool as ten entries: three were never detected, three once, and four in most replicates, with averages from 0.34 to 2.37.
Background: pairings of all heavy chain designs with three empty control strains gave a value in 1% of cases (median 2.08, 5th percentile 0.84). Values in that range, when seen in few replicates, are hard to tell from nonspecific mating. Also given: how often the same scFv was detected with the empty control strains.

Data: MIT Lincoln Laboratory AlphaSeq set, Li et al. 2023, doi:10.1038/s41467-023-39022-2, as distributed in FLAb.